Source: patent US10364212B2, “Process for the preparation of enclomiphene citrate having needle shaped crystal habit” (F.I.S.—FABBRICA ITALIANA SINTETICI S.P.A., priority 2016, dated 2019)
Read-outs that look alike come from different tables or passages of the source.

Details: room temperature and 95% RH, 17 days

Structure (SMILES) | outcome of stability study (listed as Enclomiphene having non-needle crystals) | outcome of stability study
CCN(CC)CCOc1ccc(/C(=C(/Cl)c2ccccc2)c2ccccc2)cc1.O=C(O)CC(O)(CC(=O)O)C(=O)O [Enclomiphene citrate having non-needle crystals] [Ethanamine, 2-[4-[(1E)-2-chloro-1,2-diphenylethenyl]phenoxy]-N,N-diethyl-, 2-hydroxy-1,2,3-propanetricarboxylate (1:1), reference compound] | fails the stability studies | –
CCN(CC)CCOc1ccc(/C(=C(/Cl)c2ccccc2)c2ccccc2)cc1.O=C(O)CC(O)(CC(=O)O)C(=O)O [Ethanamine, 2-[4-[(1E)-2-chloro-1,2-diphenylethenyl]phenoxy]-N,N-diethyl-, 2-hydroxy-1,2,3-propanetricarboxylate (1:1)] | – | remains thermodynamically stabile
